pIC50: −log10 of the molar value.
Target: rat NR1/NR2B receptor (Rattus norvegicus (Rat), UniProt P35439+Q00960)
Test: NR2B binding assay: inhibition of specific [3H]-Ifenprodil binding to the rat NR1/NR2B receptor
Settings: rat brain membranes
Method: Biological Assays Inhibition of Specific Binding to the Rat NR1/NR2B Receptor
Male Wistar rats (180 to 200 g) were killed by suffocation in a CO2 chamber for two minutes. Whole brains without cerebellum were removed and dissected on ice, placed into closed vials and stored at −70° C.
Membrane fractions were prepared and tested using standard techniques. At the time of the assay, 1 g of the brains was placed into 25 ml of 50 mM Tris/10 mM EDTA buffer, pH 7.1, (25 vol. per g of original tissue) and homogenized for 30 sec at 20000 rpm with an Ultraturrax T25 (Jahnke & Kunkel, IKA-Labortechnik, Staufen, Germany).
The supernatant was discarded and the pellet was homogenized on ice for 30 sec at 20000 rpm with an Ultraturrax and again centrifuged at 48000 g for 30 minutes at 4° C. The resultant pellet was resuspended in 25 ml of 50 mM Tris/10 mM EDTA buffer, homogenized for 30 sec with an Ultraturrax, aliquoted, frozen at −70° C. and stored until use.
After thawing on the day of the assay, a 5 ml membrane aliquot was centrifuged at 48000 g for 30 min at 4° C. The pellet was resuspended in 5 ml of 5 mM Tris/1 mM EDTA buffer, pH 7.4, homogenized for 30 sec at 20000 rpm with an Ultraturrax and centrifuged at 48000 g for 30 min at 4° C. This was repeated twice. The final pellet was homogenized in 5 ml of 5 mM Tris/1 mM EDTA buffer at 4° C. with an Ultraturrax and used for the Ifenprodil-binding assay as described in the following.
Nonspecific binding was estimated in the presence of […] CP101.606. The samples were incubated for 60 min. at 4° C.
The incubation was terminated by filtration of the membrane preparations using Filtermat B (Pharmacia, Uppsala Sweden) and a Micro Cell Harvester (Skatron, Lier, Norway). The Filtermat B had been presoaked with 1% polyethylene imine and carefully washed with 50 mM Tris/HCl-buffer pH 7.7 after the filtration to separate free and bound radioactivity.
The optimal amount of membrane preparation in the assay was determined and optimized for each membrane preparation separately before the test.
For pipetting of the incubation mixture the robot Biomek2000 (Fa. Beckman) was used.
For determination of IC50 values the Hill-plot, 2-parameter-model was used.

Amino acid sequences for entries named in this document (tags omitted). Residues count along the entry.
UniProt Q00960, 27-1482: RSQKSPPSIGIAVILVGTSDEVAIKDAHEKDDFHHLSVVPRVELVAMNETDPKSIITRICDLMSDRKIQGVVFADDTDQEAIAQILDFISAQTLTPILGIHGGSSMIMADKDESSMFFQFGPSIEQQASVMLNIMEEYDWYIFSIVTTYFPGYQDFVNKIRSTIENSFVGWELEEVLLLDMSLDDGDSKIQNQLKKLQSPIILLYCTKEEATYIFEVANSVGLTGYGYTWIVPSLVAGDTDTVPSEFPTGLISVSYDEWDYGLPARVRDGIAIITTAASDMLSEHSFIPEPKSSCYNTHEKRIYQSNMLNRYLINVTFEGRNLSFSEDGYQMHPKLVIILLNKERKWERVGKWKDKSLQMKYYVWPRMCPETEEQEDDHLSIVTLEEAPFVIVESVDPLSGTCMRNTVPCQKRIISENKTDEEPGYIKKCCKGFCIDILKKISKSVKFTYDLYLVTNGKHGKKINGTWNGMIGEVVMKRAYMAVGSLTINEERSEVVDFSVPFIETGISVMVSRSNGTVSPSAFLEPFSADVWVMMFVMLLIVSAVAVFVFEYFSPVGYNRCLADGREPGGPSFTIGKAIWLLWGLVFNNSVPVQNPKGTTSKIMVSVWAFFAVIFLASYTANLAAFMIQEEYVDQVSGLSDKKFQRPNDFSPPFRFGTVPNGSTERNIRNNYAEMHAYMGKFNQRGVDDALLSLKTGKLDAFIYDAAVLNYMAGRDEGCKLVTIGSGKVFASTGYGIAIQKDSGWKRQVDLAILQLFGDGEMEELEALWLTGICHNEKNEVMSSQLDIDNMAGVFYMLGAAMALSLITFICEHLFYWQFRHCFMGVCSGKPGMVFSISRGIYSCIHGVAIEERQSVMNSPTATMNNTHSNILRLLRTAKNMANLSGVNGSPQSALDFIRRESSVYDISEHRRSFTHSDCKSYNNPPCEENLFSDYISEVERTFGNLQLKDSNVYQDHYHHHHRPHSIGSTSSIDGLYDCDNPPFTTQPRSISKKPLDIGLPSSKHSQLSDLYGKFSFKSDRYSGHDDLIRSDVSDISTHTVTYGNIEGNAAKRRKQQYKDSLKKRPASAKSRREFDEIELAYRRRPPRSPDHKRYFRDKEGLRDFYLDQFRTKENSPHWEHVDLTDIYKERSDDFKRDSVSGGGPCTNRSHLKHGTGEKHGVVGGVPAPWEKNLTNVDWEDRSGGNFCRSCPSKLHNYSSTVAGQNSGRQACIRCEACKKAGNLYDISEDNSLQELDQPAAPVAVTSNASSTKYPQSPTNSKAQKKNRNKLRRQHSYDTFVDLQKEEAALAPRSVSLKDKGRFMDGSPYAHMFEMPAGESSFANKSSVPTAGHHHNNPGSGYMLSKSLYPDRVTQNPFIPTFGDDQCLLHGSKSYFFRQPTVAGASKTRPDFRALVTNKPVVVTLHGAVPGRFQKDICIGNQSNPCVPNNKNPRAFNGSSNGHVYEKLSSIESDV

| SMILES | pIC50 |
| --- | --- |
| Cc1cc(Cn2cc(-c3cccc(OC(F)(F)F)c3)cn2)n(C)n1 [Example 22, 1,3-dimethyl-5-[[4-[3-(trifluoromethoxy)phenyl]pyrazol-1-yl]methyl] pyrazole Succinate] | 5.56 |
| Cc1n[nH]c(C)c1CCn1cc(-c2ccc(Cl)c(C(F)F)c2)cn1 [Example 27, 4-[2-[4-[4-Chloro-3-(difluoromethyl)phenyl]pyrazol-1-yl]ethyl]-3,5-dimethyl-1H-pyrazole] | 5.14 |
| FC(F)c1cc(Cl)cc(-c2cnn(Cc3cc[nH]n3)c2)c1 [Example 28, 4-[3-chloro-5-(difluoromethyl)phenyl]-1-(1H-pyrazol-3-ylmethyl)pyrazole] | 6.20 |
| Cc1cc(Cn2cc(-c3ccc(Cl)c(C)c3)cn2)n(C)n1 [Example 57, 5-[[4-(4-chloro-3-methyl-phenyl)pyrazol-1-yl]methyl]-1,3-dimethyl-pyrazole Succinate] | 6.01 |
| Cc1cc(Cn2cc(-c3ccc(Cl)cc3Cl)cn2)n(C)n1 [Example 65, 5-[[4-(2,4-dichlorophenyl)pyrazol-1-yl]methyl]-1,3-dimethyl-pyrazole] | 5.42 |
| Cc1cc(Cn2cc(-c3ccc(Br)cc3)cn2)n(C)n1 [Example 80, 5-[[4-(4-bromophenyl)pyrazol-1-yl]methyl]-1,3-dimethyl-pyrazole] | 5.21 |
| Cc1cc(Cn2cc(-c3cccc(Br)c3)cn2)n(C)n1 [Example 81, 5-[[4-(3-bromophenyl)pyrazol-1-yl]methyl]-1,3-dimethyl-pyrazole Succinate] | 5.33 |
| CCn1cncc1Cn1cc(-c2ccc(F)c(C)c2)cn1 [Example 96, 4-(4-fluoro-3-methylphenyl)-1-((1-ethyl-1H-imidazol-5-yl)methyl)-1H-pyrazole] | 7.11 |
